Test results published in PubChem BioAssay AID2252 (Southern Research Specialized Biocontainment Screening …, 2010).
This is a selection; strong and weak results do not stand in their true shares. Some results for these compounds are left out of this collection, so the calls shown say nothing about other tests. Active and inactive are the calls of the source. How the calls were made is not given here.

Experiment: PubChem AID 2252;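 further: 100% = mean of untreated cell control wells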
Conditions: THP-1 viability, CellTiter-Glo luminescence, 72 h; at 50 µM (top of the series)

SMILES | viability
COc1ccc(C(=O)NCC2(N(C)C)CCCCC2)cc1 | inactive: 102%
